The target in test [1] is mouse MC1R (Mus musculus, UniProt Q01727). The following applies: read-out: EC50 (nmol/L) mMC1R; cAMP in HEK293 cells stably expressing mouse MC1R; one-half of Emax of αMSH.
For test [2], the system named is skin of healthy subjects. The following applies: 150 and 300 mg orally once daily for 14 days; FIG. 2.

By UniProt entry, the sequences of proteins in these tests, tags left out. Where a name states a change or a piece, a line headed by the entry shows the natural chain unless it says otherwise.
UniProt Q01727: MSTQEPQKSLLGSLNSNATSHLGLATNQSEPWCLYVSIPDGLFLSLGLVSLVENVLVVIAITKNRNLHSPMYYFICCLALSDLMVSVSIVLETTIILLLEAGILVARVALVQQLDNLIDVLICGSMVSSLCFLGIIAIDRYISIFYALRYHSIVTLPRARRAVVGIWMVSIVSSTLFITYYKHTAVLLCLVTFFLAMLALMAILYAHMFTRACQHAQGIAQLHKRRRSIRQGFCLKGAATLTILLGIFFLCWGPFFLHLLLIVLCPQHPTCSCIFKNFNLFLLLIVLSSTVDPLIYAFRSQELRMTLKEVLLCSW

pEC50: −log10 of the molar value.

As to `COC[C@H]1CN(C(=O)[C@]2(F)CN(C3CCCC3)C[C@H]2c2ccc(OC)cc2)C[C@@H]1c1ccc(C(F)(F)F)cc1N1CCC(C(=O)O)CC1` [Compound A, Cocrystal of 1-{2-[(3S,4R)-1-{[(3R,4R)-1-cyclopentyl-3-fluoro-4-(4-methoxyphenyl)pyrrolidin-3-yl]carbonyl}-4-(methoxymethyl)pyrrolidin-3-yl]-5-(trifluoromethyl)phenyl}piperidine-4-carboxylic acid with phosphoric acid], the pEC50 in test [1] is 8.94. Also, the “increase in melanin density of the skin: duration” value in test [2] was “kept until day 29”.

The values are drawn from US20230226034A1, “PROPHYLACTIC OR THERAPEUTIC AGENT FOR PHOTODERMATOSIS” (MITSUBISHI TANABE PHARMA CORPORATION, priority 2020, published 2023).
